Data as given in PMC6435016 (Biophysics and Physicobiology, 2019).

Biological target: the molecule itself
Assay: SEC

B1: Grb2 SH2 monomer (SH2 domain of human Grb2, residues 60-152) (domain or fragment, UniProt P62993 60-152, looked up)
chain: WFFGKIPRAKAEEMLSKQRHDGAFLIRESESAPGDFSLSVKFGNDVQHFKVLRDGAGKYFLWVVKFNSLNELVDYHRSTSVSRNQQIFLRDIE
stoichiometry N: 2
